# Results published in patent US20090054517A1, “Phytoestrogens As Regulators Of Hedgehog Signaling And Methods Of Their Use In Cancer Treatment” (priority 2007, published 2009).
# Test system: Hedgehog pathway activity in Shh Light II cells
# Test: Shh Light II Gli1-responsive luciferase reporter assay
# Assay type: cell-based
# Conditions: Shh Light II cells with sonic hedgehog protein, 24 hours, FIG. 7B
# Method: The effects of various phytoestrogens on Hedgehog signaling in a non-tumor cell line Shh Light II were also assessed (FIG. 7B). Shh Light II cells were obtained from the ATCC. These cells, containing the Gli1 responsive promoter driving a luciferase reporter, are a standard tool used to assay Hedgehog pathway activity. Meloni et al., 2006. Cells were allowed to reach confluency in 24-well plates and subsequently treated with the selected phytoestrogens at the amount indicated on the figure, along with the stimulatory sonic hedgehog protein (obtained from R&D Systems). The cells were then grown for 24 hours in phenol red-free DMEM supplemented with 0.5% charcoal stripped fetal bovine serum. Cells were then lysed, and the luciferase and renilla activities of the cell lysates were measured.
smiles,measurement,value
CC1=C2C[C@H]3[C@@H](CC=C4C[C@@H](O)CC[C@@]43C)[C@@H]2CC[C@]12O[C@@H]1C[C@H](C)CN[C@H]1[C@H]2C [cyclopamine],hedgehog activity (luciferase reporter activity),inhibit
